Reference: patent publication US20030203857A1, “Remedies” (priority 2000, published 2003)

System: mouse
Format: in vivo
Conditions: orally, single dose of 1 g/1 kg

3,5-dicaffeoylquinic acid
Death after single oral administration: no cases of death
